These are literature values, as cited in publication PMC7584369, “Di-bromo-Based Small-Molecule Inhibitors of the PD-1/PD-L1 Immune Checkpoint” (Journal of Medicinal Chemistry, 2020).

In the data set the test system is Jurkat PD-1 Effector Cells alone or in co-culture with CHO K-1 PD-L1 aAPCs. To be noted: Skalniak et al. (2017), Figure 2a; cited from earlier work.

Consider `Cc1c(COc2cc(OCc3cccc(C#N)c3)c(CN3C[C@H](O)C[C@@H]3C(=O)O)cc2Cl)cccc1-c1ccc2c(c1)OCCO2` [BMS-1166, reference compound], for which the “concentration that decreased the viability of the cells by 50%” value is 40 µM.
